Common to all, as to assay: SPR; BIAcore 3000, 25 °C; PD-L1-Ig or PD-L2-Ig immobilized on CM5 chip by amine coupling; soluble monomeric PD-1 or mutants (0.01–100 μM) injected at 20 μl/min; equilibrium Kd, 1:1 Langmuir model
What all share (conditions): both partners purified
In general terms: Surface plasmon resonance follows binding to a sensor surface in real time, without labels.

Amino acid sequences for entries named in this document (tags omitted). Residues count along the entry.
UniProt Q9EP73, 19-239: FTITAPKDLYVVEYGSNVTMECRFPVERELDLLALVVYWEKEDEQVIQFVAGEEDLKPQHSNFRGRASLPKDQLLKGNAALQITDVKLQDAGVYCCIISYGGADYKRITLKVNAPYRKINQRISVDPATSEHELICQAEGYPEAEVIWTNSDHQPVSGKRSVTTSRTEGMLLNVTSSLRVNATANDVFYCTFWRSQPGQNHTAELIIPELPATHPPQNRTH

For assay [1], the target named is T1, mouse PD-L2 Ig fusion protein (mouse, UniProt Q9WUL5 20-221).
T1 construct: mouse PD-L2 part of a bought Ig fusion protein; also called mPD-L2; murine PD-L2-Ig; source: bought: R&D Systems
T1 sequence (looked up): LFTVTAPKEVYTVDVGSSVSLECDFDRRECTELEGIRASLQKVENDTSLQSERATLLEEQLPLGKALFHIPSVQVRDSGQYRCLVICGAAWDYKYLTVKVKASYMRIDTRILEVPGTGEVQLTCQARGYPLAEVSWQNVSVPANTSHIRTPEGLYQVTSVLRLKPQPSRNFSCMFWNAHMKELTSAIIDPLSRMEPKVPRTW

For assay [2], the target named is T2, human PD-L2 Ig fusion protein (human, UniProt Q9BQ51 20-220).
T2 construct: characterized by SEC prior to use; also called huPD-L2; B7-DC; source: bought: R&D Systems
T2 sequence (looked up): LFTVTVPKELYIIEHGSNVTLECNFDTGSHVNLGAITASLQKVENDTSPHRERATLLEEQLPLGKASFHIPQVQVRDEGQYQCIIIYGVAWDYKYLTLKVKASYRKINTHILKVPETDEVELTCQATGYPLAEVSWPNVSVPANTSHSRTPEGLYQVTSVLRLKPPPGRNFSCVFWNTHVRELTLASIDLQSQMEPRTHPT

Assay [3] deals with T3, mouse PD-L1 Ig fusion protein (mouse, UniProt Q9EP73, in part).
T3 construct: mouse PD-L1 part of a bought Ig fusion protein; also called mPD-L1; murine PD-L1-Ig; source: bought: R&D Systems

In general, Kd refers to the concentration at which binding is half-saturated.

B1: human PD-1 extracellular IgV domain, wild type (soluble, monomeric) (domain or fragment)
chain: WNPPTFSPALLVVTEGDNATFTCSFSNTSESFVLNWYRMSPSNQTDKLAAFPEDRSQPGQDCRFRVTQLPNGRDFHMSVVRARRNDSGTYLCGAISLAPKAQIKESLRAELRVTERRAEVPTAHPSPSP
notes: numbering relative to the initiator methionine; cloned into pET3a between NdeI and BamH1; no tag is named; also called huPD-1; soluble monovalent PD-1
With B1, the Kd in assay [1] is 270 nM; in assay [2], 190 nM; in assay [3] it was 3810 nM.

(Values after PMC5360572 (EBioMedicine, 2017).)
